{
  "source": "patent US20040014721A1",
  "about": "“Method for using tethered bis(polyhydroxyphenyls) and O-alkyl derivatives thereof in treating inflammatory conditions of the central nervous system” (Oklahoma Medical Research Foundation, priority 2002, published 2004)",
  "system": "EOC-20 cells",
  "details": "Table III; MTT viability; by extrapolation through sublethal concentrations",
  "data": [
    {"smiles": "CN(C)[C@@H]1C(O)=C(C(N)=O)C(=O)[C@@]2(O)C(O)=C3C(=O)c4c(O)cccc4[C@@](C)(O)[C@H]3[C@H](O)[C@@H]12", "note": "[Oxyletracycline]", "values": [
      {"measurement": "LD50", "result": "nontoxic"}
    ]}
  ]
}
